Two compounds from ChEMBL document CHEMBL2157983 (Bioorg Med Chem Lett, 2011) can be followed below.

Assay [1] has as its system V79. As to the kind of experiment: Ratio of IC50 for Chinese hamster V79 cells to IC50 for Chinese hamster V79 cells transfected with Escherichia coli nitroreductase nfsB.
Assay [2] concerns SK-OV-3. The experiment in a line: Antiproliferative activity against human SKOV3 cells transfected with Escherichia coli nitroreductase nfsB assessed as reduction in cell number after 18 hrs.
Assay [3] concerns V79. The experiment in a line: Antiproliferative activity against Chinese hamster V79 cells assessed as reduction in cell number after 72 hrs. In kind it is cell-based, Cricetulus griseus.
Assay [4] has as its system V79. As to the kind of experiment: Antiproliferative activity against Chinese hamster V79 cells transfected with Escherichia coli nitroreductase nfsB assessed as reduction in cell number after 72 hrs.
The subject of assay [5] is SK-OV-3. The experiment in a line: Ratio of IC50 for human SKOV3 cells to IC50 for human SKOV3 cells transfected with Escherichia coli nitroreductase nfsB.

With `O=C(OCc1ccc([N+](=O)[O-])cc1)N(CCCl)CCCl`, the Ratio IC50 was 28 with V79 [1] and over 18 in the assay on SK-OV-3 [5]. Further, the results for the IC50 in the assay on SK-OV-3 [2], in the assay with V79 [3] and in the assay with V79 [4] were 16 µM, 45 µM and 1.6 µM, respectively.
With `O=[N+]([O-])c1ccc(COS(=O)N(CCCl)CCCl)cc1` (configuration not stated), the values for the concentration for half-maximal inhibition (IC50) with V79 [3] and with V79 [4] were 62 µM and 2.9 µM, respectively.
